The record followed here is article PMC9293909 (Nature Communications, 2022).

Amino acid sequences for entries named in this document (tags omitted).
UniProt P28647, whole entry: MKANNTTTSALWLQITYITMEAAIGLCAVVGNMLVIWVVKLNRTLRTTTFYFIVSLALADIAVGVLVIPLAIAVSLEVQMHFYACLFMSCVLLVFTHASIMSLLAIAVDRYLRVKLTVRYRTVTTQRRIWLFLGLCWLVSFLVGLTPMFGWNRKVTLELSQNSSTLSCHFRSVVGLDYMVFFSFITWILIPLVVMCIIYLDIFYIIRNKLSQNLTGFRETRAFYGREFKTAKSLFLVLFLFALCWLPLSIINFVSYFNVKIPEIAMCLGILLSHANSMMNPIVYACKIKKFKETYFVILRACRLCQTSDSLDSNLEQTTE

The target in this assay is T1, rA3R (Rattus norvegicus, UniProt P28647).
T1 construct: expressed in transfected cells; host or cells: Flp-In-CHO (ThermoFisher R75807), pcDNA5/FRT
As to the kind of experiment: cAMP inhibition at rA3R (Flp-In-CHO). It is filed as cell-based. As to conditions: half-maximal response, read-out: pIC50 rA3R (converted).

Each structure is given as a SMILES string.

For `OC[C@H]1O[C@@H](n2cnc3c(NC4CCCC4)ncnc32)[C@H](O)[C@@H]1O` [CPA, N^6-Cyclopentyladenosine], the IC50 was 0.0389 µM.
